{"source": "patent US6410508B1", "about": "(priority 1998, dated 2002)", "conditions": "for weight after six weeks: mean±sem", "note": "Where two headings read alike, the source gives them in different places.", "data": [{"smiles": "CC[C@H](C)[C@H](NC(=O)[C@H](CO)NC(=O)[C@H](Cc1ccc(O)cc1)NC(=O)[C@H](CC(=O)O)NC(=O)[C@H](CO)NC(=O)[C@@H](NC(=O)[C@H](Cc1ccccc1)NC(=O)[C@@H](NC(=O)CNC(=O)[C@H](CCC(=O)O)NC(=O)[C@H](C)NC(=O)[C@@H](N)Cc1ccc(O)cc1)[C@@H](C)O)[C@@H](C)CC)C(=O)N[C@@H](C)C(=O)N[C@@H](CCSC)C(=O)N[C@@H](CC(=O)O)C(=O)N[C@@H](CCCCN)C(=O)N[C@H](C(=O)N[C@@H](Cc1c[nH]cn1)C(=O)N[C@@H](CCC(N)=O)C(=O)N[C@@H](CCC(N)=O)C(=O)N[C@@H](CC(=O)O)C(=O)N[C@@H](Cc1ccccc1)C(=O)N[C@H](C(=O)N[C@@H](CC(N)=O)C(=O)N[C@@H](Cc1c[nH]c2ccccc12)C(=O)N[C@@H](CC(C)C)C(=O)N[C@@H](CC(C)C)C(=O)N[C@@H](C)C(=O)N[C@@H](CCC(N)=O)C(=O)N[C@@H](CCCCN)C(=O)NCC(=O)N[C@@H](CCCCN)C(=O)N[C@@H](CCCCN)C(=O)N[C@@H](CC(N)=O)C(=O)N[C@@H](CC(=O)O)C(=O)N[C@@H](Cc1c[nH]c2ccccc12)C(=O)N[C@@H](CCCCN)C(=O)N[C@@H](Cc1c[nH]cn1)C(=O)N[C@@H](CC(N)=O)C(=O)N[C@H](C(=O)N[C@H](C(=O)N[C@@H](CCC(N)=O)C(=O)O)[C@@H](C)O)[C@@H](C)CC)C(C)C)[C@@H](C)CC", "note": "[GIP, Glucose-dependent Insulinotropic Peptide]", "values": [{"measurement": "effect on weight", "setting": "OVX and non-OVX rats, six weeks", "result": "no effect on weight"}, {"measurement": "weight after six weeks", "setting": "OVX rats (OVX+GIP)", "result": "305.1±5.2", "unit": "grams"}, {"measurement": "weight after six weeks", "setting": "non-OVX rats (Control+GIP)", "result": "234.5±5.5", "unit": "grams"}, {"measurement": "blood sugars, GIP versus saline", "setting": "rats, GIP 0.05 mg/kg daily, checked throughout the study", "result": "no statistically significant difference"}]}]}
